The target of this assay is HIV integrase (Human immunodeficiency virus type 1 group M subtype B, UniProt P04585). Briefly: biochemical.

Some results are limits rather than exact numbers.

For orientation: IC50 means the concentration needed to halve the response being measured. Read a low IC50 as greater potency.

Consider `CN(c1c2c(c(O)c3ncccc13)C(=O)N(Cc1ccc(F)cc1)C2)S(=O)(=O)CCCN1CCOCC1` [Compound 46, N-(7-(4-fluorobenzyl)-9-hydroxy-8-oxo-7,8-dihydro-6H-pyrrolo[3,4-g]quinolin-5-yl)-N-methyl-3-morpholinopropane-1-sulfonamide], for which the IC50 is < 60 nM.

For `CN(c1c2c(c(O)c3ncccc13)C(=O)N(Cc1ccc(F)cc1)C2)S(=O)(=O)CCCC#N` [Compound 48, 3-cyano-N-(7-(4-fluorobenzyl)-9-hydroxy-8-oxo-7,8-dihydro-6H-pyrrolo[3,4-g]quinolin-5-yl)-N-methylpropane-1-sulfonamide], the IC50 was < 60 nM.

`CN(c1c2c(c(O)c3ncccc13)C(=O)N(Cc1ccc(F)cc1)C2)S(=O)(=O)CCCn1ccnc1` [Compound 49, N-(7-(4-fluorobenzyl)-9-hydroxy-8-oxo-7,8-dihydro-6H-pyrrolo[3,4-g]quinolin-5-yl)-3-(1 H-imidazol-1-yl)-N-methylpropane-1-sulfonamide] showed an IC50 of 60 to 1000 nM.

The values are drawn from patent US20070072831A1, “Integrase inhibitor compounds” (GILEAD SCIENCES, INC., priority 2005, published 2007).
